Values of other authors, collected in US6028083A, “Esters of (+)-α-(2,3-dimethoxyphenyl)-1-[2-(4-fluorophenyl) ethyl]-4-piperidinemethanol” (Hoechst Marion Roussel, Inc., priority 1997, dated 2000).

Test system: 5HT2A receptor
Conditions: literature (Pranzatelli 1990; Wettstein et al. 1996); cited from earlier work

SMILES | block of the behavioral effects of DOI
CC[C@@H](CO)NC(=O)[C@@H]1C=C2c3cccc4c3c(cn4C)C[C@H]2N(C)C1 [methysergide] | dose-dependently block the behavioral effects of DOI
CN1CCN2c3ccccc3Cc3ccccc3C2C1 (centres unmarked) [mianserin] | dose-dependently block the behavioral effects of DOI
